The target of the assay is recombinant human soluble ECD of CD64/FCGRIA (human) (UniProt P12314). The assay is described as follows: ELISA: plate coated with recombinant human CD64/FCGRIA ECD, antibody titrated, HRP goat anti-human Fc, OD650. (An ELISA detects its analyte on a solid surface through an enzyme-linked reagent.)

Take “Anti-EGFR Ab No. 2 Wild Type (antibody; other documents disagree on this pair)”: the EC50 (read off the curve) is 0.04 µg/mL.

For “Anti-EGFR Ab No. 2 L234A, L235A (antibody; other documents disagree on this pair)”, the EC50 (read off the curve) came out at 4 µg/mL.

In general, EC50 (read off the curve) refers to the concentration that produces a half-maximal response.

(Values after patent publication US20230165967A1.)
